Results published in US9801851B2, “Methods and compositions for the treatment of BCR-ABL positive lymphoblastic leukemias” (ST. JUDE CHILDREN'S RESEARCH HOSPITAL, priority 2012, dated 2017).

Tests used:
Arf−/− BCR-ABL^WT LICs = conditions: mouse, in vivo
BCR-ABL^T315I LICs = test: In vivo adoptive leukemia transfer Ph+ model, overall survival; conditions: IL7+/+ host mice; 300 mg/kg DHA or 10 mg/kg dasatinib
BCR-ABL^WT LICs = test: Drug/cytokine washout, cytokine recovery and dasatinib re-challenge studies; format: cell-based, murine; conditions: incremental doses; 0 to 72 h

Cc1nc(Nc2ncc(C(=O)Nc3c(C)cccc3Cl)s2)cc(N2CCN(CCO)CC2)n1 [dasatinib]
median survival (Arf−/− BCR-ABL^WT LICs): 33 days and 41 days | time to complete mortality after initiating therapy (Arf−/− BCR-ABL^WT LICs; 10 mg/kg): ≤ 6 weeks | response of low-burden BCR-ABL^T315I leukemia to monotherapy (BCR-ABL^T315I LICs): completely refractory | cell cycle changes at end of exposure period (FACS) (BCR-ABL^WT LICs): induce cell cycle arrest and apoptosis

“And” between values parts separate entries of the source, which are not always exact repeats. Equal entries are not always repeated.
